From ChEMBL document CHEMBL4257577

What was measured:
[1] = Permeability of the compound at 100 uM after 3 to 6 hrs by PAMPA assay
SH-SY5Y [2] = experiment: Cytotoxicity against human SH-SY5Y cells assessed as reduction in cell viability up to 800 uM after 24 hrs by MTS assay
[3] = Dissociation constant, pKa of the compound at pH 4.6 to 10.3 by spectrophotometry
SH-SY5Y [4] = experiment: Cytotoxicity against human SH-SY5Y cells assessed as reduction in cell viability after 24 hrs by MTS assay
[5] = Dissociation constant, pKa of the compound at pH 4.6 to 9.2 by spectrophotometry
[6] = Dissociation constant, pKa of the compound at pH 6 to 9.5 by spectrophotometry
[7] = Dissociation constant, pKa of the compound at pH 4.6 to 11.1 by spectrophotometry

SMILES | permeability [1] | Activity (SH-SY5Y [2]) | also measured
C[n+]1ccccc1/C=N/O.[I-] | 0.36 ×10⁻⁶ cm/s | Non-Toxic | 
NC(=O)c1cc[n+](CCCC[n+]2cc(Cl)c(/C=N/O)c(Cl)c2)cc1.[Br-].[Br-] | 1.4 ×10⁻⁶ cm/s | Non-Toxic | pKa [3]: 7.66
NC(=O)c1cc[n+](C/C=C/C[n+]2cc(Cl)c(/C=N/O)c(Cl)c2)cc1 |  |  | IC50 (SH-SY5Y [4]): 30 µM
Cl.NC(=O)c1cc[n+](COCN2C=CC=CC2=CN=O)cc1.[Cl-] |  | Non-Toxic | 
NC(=O)c1cc[n+](CCCC[n+]2ccc(/C=N/O)c(Cl)c2)cc1.[Br-].[Br-] | 1 ×10⁻⁶ cm/s | Non-Toxic | pKa [3]: 7.68
NC(=O)c1cc[n+](C/C=C/C[n+]2cc(Cl)c(/C=N/O)c(Cl)c2)cc1.[Br-].[Br-] | 2.21 ×10⁻⁶ cm/s |  | pKa [5]: 7.55
NC(=O)c1cc[n+](CCCC[n+]2ccc(/C=N/O)cc2)cc1.[Br-].[Br-] | 0.34 ×10⁻⁶ cm/s | Non-Toxic | pKa [6]: 8.44
NC(=O)c1cc[n+](CCC[n+]2cc(Cl)c(/C=N/O)c(Cl)c2)cc1.[Br-].[Br-] | 1.73 ×10⁻⁶ cm/s | Non-Toxic | pKa [3]: 7.53
NC(=O)c1cc[n+](C/C=C/C[n+]2ccc(/C=N/O)c(Cl)c2)cc1.[Br-].[Br-] | 2.6 ×10⁻⁶ cm/s |  | pKa [5]: 7.6
NC(=O)c1cc[n+](CCC[n+]2ccc(/C=N/O)c(Cl)c2)cc1.[Br-].[Br-] | 1.4 ×10⁻⁶ cm/s | Non-Toxic | pKa [7]: 7.57
NC(=O)c1cc[n+](CCC[n+]2ccc(/C=N/O)cc2)cc1.[Br-].[Br-] | 0.33 ×10⁻⁶ cm/s | Non-Toxic | 
NC(=O)c1cc[n+](C/C=C/C[n+]2ccc(/C=N/O)cc2)cc1.[Br-].[Br-] | 0.45 ×10⁻⁶ cm/s | Non-Toxic | 
